Test [1] deals with MBP-Th-LGR4 LRR1-14 (MBP-Th-hLGR4.23-383-H6) (human) (UniProt Q9BXB1). Description: TR-FRET competition binding; Tb-labeled MBP-Th-LGR4 LRR1-14 (20 nM), AF488-labeled MBP-Th-RSPO2 Fu1-Fu2 (125 nM) as tracer.
For test [2], the target named is LGR4 expressed by HEK293T cells (UniProt Q9BXB1). The test is described as follows: cell-based or functional assay.

As to “MBP-Th-RSPO2 Fu1-Fu2-H6 [T111I] mutant (MBP-Th-RSPO2.22-144-H6 (T111I)) (ligand)”, the pKI in test [1] came to 7.57. The pEC50, [..] Wnt signaling assay in HEK293T cells in test [2] was 9.75.

In turn, “MBP-Th-RSPO2-4 Fu1-Fu2 chimera (MBP-Th-RSPO2.22-76-RSPO4.72-138-H6) (designed binder)” showed a pKI in test [1] of 8.36.

In test [1], “MBP-Th-RSPO4-1 Fu1-Fu2 chimera (MBP-Th-RSPO4.21-71-RSPO1.78-145-H6) (designed binder)” came in with a pKI of 7.32.

These data come from patent publication US20160152947A1 (BOARD OF REGENTS OF THE UNIVERSITY OF OKLAHOMA, published 2016).
